Data set [1] deals with butyrylcholinesterase (BChE) (Homo sapiens, UniProt P06276). Description: In vitro enzyme kinetics. To be noted: rate of first chemical step. The class given is biochemical.
For data set [2] the following is noted: whole brain; for t1/2 clearance (pooled): pooled across mouse strains.

Sequences of proteins named here, by UniProt entry; tags and fusion partners are left off. Residues count along the entry.
UniProt P06276, 29-602 limits assumed: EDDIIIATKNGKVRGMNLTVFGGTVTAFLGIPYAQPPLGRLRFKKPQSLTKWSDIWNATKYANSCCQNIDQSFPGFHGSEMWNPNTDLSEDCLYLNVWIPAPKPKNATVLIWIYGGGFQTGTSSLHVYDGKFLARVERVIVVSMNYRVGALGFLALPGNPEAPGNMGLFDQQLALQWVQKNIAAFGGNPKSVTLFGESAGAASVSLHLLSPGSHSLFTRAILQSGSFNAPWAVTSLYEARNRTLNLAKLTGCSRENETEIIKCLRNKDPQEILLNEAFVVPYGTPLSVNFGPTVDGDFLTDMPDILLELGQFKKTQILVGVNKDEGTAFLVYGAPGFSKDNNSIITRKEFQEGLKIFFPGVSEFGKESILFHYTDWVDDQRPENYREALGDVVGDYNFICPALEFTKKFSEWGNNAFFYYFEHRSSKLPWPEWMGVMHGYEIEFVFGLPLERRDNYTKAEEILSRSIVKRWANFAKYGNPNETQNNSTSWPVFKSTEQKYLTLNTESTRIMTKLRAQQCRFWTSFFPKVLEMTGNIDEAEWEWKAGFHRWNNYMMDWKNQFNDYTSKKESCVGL

Like-named read-outs stand apart in the source and are kept apart here.

For orientation: kcat means the maximal rate divided by the concentration of active sites.

Consider `O=C(OCc1ccc(I)cc1)c1cccc(=O)[nH]1` [TRV7005, (p-Iodophenyl)methyl 6-oxo-1H-pyridine-2-carboxylate], for which the kcat in data set [1] came to 81.67 s⁻¹. In data set [2] (5XFAD-BChE-KO mouse), this compound gave a t1/2 clearance of 10.38 min. The “t1/2 clearance (pooled)” value in data set [2] amounted to 7.23 ± 0.95 min.
Regarding `Cn1c(C(=O)OCc2ccc(I)cc2)cccc1=O` [TRV7006, (p-Iodophenyl)methyl 1-methyl-6-oxo-1H-pyridine-2-carboxylate], the turnover number (kcat) in data set [1] was 50 s⁻¹. Also, the t1/2 clearance in data set [2] (BChE-KO mice) turned out to be 3.27 ± 0.93 min. Further, the “t1/2 clearance (pooled)” value in data set [2] was 4.36 ± 0.75 min.
For `COc1cccc(C(=O)OCc2ccc(I)cc2)n1` [TRV7019, (p-iodophenyl)methyl 6-methoxy-2-pyridinecarboxylate], the catalytic constant (kcat) in data set [1] was 1333.3 s⁻¹. Also, in data set [2], the “t1/2 clearance (pooled)” value was determined as 2.50 ± 0.41 min.

Source of the values: patent US20230357154A1 (priority 2019, published 2023).
